Earlier results on one molecule are cited in US9782400B2, “Oncogenic ROS1 and ALK kinase inhibitor” (Macau University of Science and Technology, priority 2015, dated 2017).

In the series the test system is ROS1-positive NSCLC. The settings on record: NSCLC patients harboring ROS1 rearrangements; cited from earlier work.

As for `C[C@@H](Oc1cc(-c2cnn(C3CCNCC3)c2)cnc1N)c1c(Cl)ccc(F)c1Cl` [crizotinib], the “median duration of response” value is 17.6 months.
